AlphaSeq binding of Ab-95 light chain variants to a spike HR2 peptide

Values reported by Engelhart et al. 2022, doi:10.1038/s41597-022-01779-4 (FLAb copy).

Target peptide (SARS-CoV-2 spike, HR2 region): PDVDLGDISGINAS

The variants keep the heavy chain, the linker and the frameworks of Ab-95 (scFv order VH, three GGGGS repeats, VL).
VH: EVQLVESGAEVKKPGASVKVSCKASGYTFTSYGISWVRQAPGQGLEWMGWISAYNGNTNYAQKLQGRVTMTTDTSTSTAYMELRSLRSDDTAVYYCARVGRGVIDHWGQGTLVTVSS
VL: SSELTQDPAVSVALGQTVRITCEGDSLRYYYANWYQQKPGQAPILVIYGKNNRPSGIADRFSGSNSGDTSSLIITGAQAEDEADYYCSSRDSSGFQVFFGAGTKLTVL

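Variants in AAYL52 differ from the parent at up to three CDR positions; double and triple changes were sampled at random. In AlphaSeq, yeast of one mating type display the scFv and yeast of the other type display the target. Pairs that bind mate more often; barcode pairs of the diploids are counted by sequencing. The ratio of observed to expected reads was calibrated, replicate by replicate, on BCL2-family standards whose Kd was known from biolayer interferometry. There are three technical replicates.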

The parent's light chain CDRs are EGDSLRYYYAN, GKNNRPS, SSRDSSGFQVF; each variant's own CDRs replace them letter for letter.
Numbers give log10(Kd / nM), so 0 is 1 nM and 3 is 1 µM. Smaller is tighter.
A mean of the replicates is given; it leaves out those without a signal.
A pair that was not seen in that replicate is written "ND"; this usually means weak binding, but a binder can also be missed.
As a blank, each scFv also met three strains without target: over library AAYL52, 28% of these pairings were detected, typically at 3.91 and seldom below 2.90. Also given: how often the same scFv was detected with the empty control strains.

For EGDSLRYYWAN, GKNNRPS, SARDSSQFQVF, the assay gave 3.11, 2.67, 2.28 (mean 2.69; controls 4 of 9).
For RGDSLRYIYAN, GKNNRPS, SSRDSSGFQMF, the assay gave 2.89, 4.24, 3.65 (mean 3.59; controls 1 of 9).
For EGDSLRYYCAN, GKLNRPT, SSRDSSGFQVF, the assay gave ND, 3.76, 4.33 (mean 4.05; controls 1 of 9).
For EGDSLRYVYAN, GKNMRPS, SSRDSSFFQVF, the assay gave ND, ND, 4.63 (controls 2 of 9).
For EGHSLRYYYAN, GKANRPS, SWRDSSGFQVF, the assay gave 3.07, ND, ND (controls 4 of 9).
For EGASLRYYYAN, FKNNRPS, SSRDYSGFQVF, the assay gave ND, ND, ND (controls 3 of 9).
For EGDSLRYWYAN, KKNNRPS, SSRGSSGFQVF, the assay gave ND, 5.44, ND (controls 0 of 9).
For EGDSLRDYYAN, IKNNRPS, SSRDSSHFQVF, the assay gave 4.41, ND, ND (controls 2 of 9).
For EGDRLRYYYSN, GKNNRPS, SSRDSSGFQVF, the assay gave 4.29, ND, ND (controls 1 of 9).
For EGDSLRFYYAN, GKNNRPS, SVRDSNGFQVF, the assay gave 3.40, 2.75, 2.81 (mean 2.99; controls 5 of 9).
For EIWSLRYYYAN, GKNNRPS, SSRVSSGFQVF, the assay gave ND, 3.94, 3.98 (mean 3.96; controls 6 of 9).
For EVDSLRYYYAN, GKNNRVS, SFRDSSGFQVF, the assay gave 1.88, 2.16, 2.25 (mean 2.10; controls 4 of 9).
For EGDSLRYYYAN, GKNNRWS, ESKDSSGFQVF, the assay gave ND, ND, ND (controls 0 of 9).
For EGDSMRYYYAN, GPNNLPS, SSRDSSGFQVF, the assay gave ND, 4.68, ND (controls 2 of 9).
For EVDSRRYYYAL, GKNNRPS, SSRDSSGFQVF, the assay gave ND, ND, 4.58 (controls 2 of 9).
For EGDKLRYYYAQ, GKNNRPS, SSRDSSGFQVY, the assay gave ND, 3.14, ND (controls 1 of 9).
For EGQSLRYYYAN, GKYNNPS, SSRDSSGFQVF, the assay gave 3.50, 4.75, 3.18 (mean 3.81; controls 4 of 9).
For EGDSLRYYYAN, GSNNRPS, SSRDSIMFQVF, the assay gave 5.57, 4.89, ND (mean 5.23; controls 2 of 9).
For EGDSLRYYYIN, TKNNRPS, LSRDSSGFQVF, the assay gave ND, 4.04, ND (controls 1 of 9).
For EGDSLRYYPDN, GKNNRPS, SSRDSSDFQVF, the assay gave 2.91, ND, ND (controls 0 of 9).
For EGDSLRTYYAN, GKNNAPS, SSRDSSGFQVF, the assay gave 2.80, 2.98, 2.54 (mean 2.77; controls 4 of 9).
For EGDSLRYYYAN, GKNCRPS, SSRDSSGFQRF, the assay gave 4.11, ND, ND (controls 2 of 9).
For EGDSLRYYYAN, GKNNRPS, SPRDSQGFQVF, the assay gave ND, 4.07, 4.35 (mean 4.21; controls 2 of 9).
For ETDSLRYYYAN, GKNNRPS, SSPDCSGFQVF, the assay gave 3.85, 4.00, ND (mean 3.93; controls 3 of 9).
For EFDSLRGYYAN, GKNNRPM, SSRDSSGFQVF, the assay gave 2.58, 2.45, 2.33 (mean 2.45; controls 6 of 9).
For EGDSLWWYYAN, GKNNRPS, SSRDSSGFQVW, the assay gave 3.81, 4.62, ND (mean 4.22; controls 2 of 9).
For EGDSLRYEYAN, GKNNRPS, SSRDSGMFQVF, the assay gave 2.04, 2.11, 1.87 (mean 2.01; controls 3 of 9).
For EGDSLVYYSAN, GKNNRPS, SSRDSSGFQVS, the assay gave 2.41, 1.94, 2.32 (mean 2.22; controls 1 of 9).
For EGDSLRYYYAN, GKNNCPS, SYRDSSGFLVF, the assay gave 4.12, 4.99, ND (mean 4.55; controls 0 of 9).
For EGYPLRYYYAN, GKNNWPS, SSRDSSGFQVF, the assay gave ND, ND, 4.06 (controls 3 of 9).
For EGDSLRYYIGN, GKNNRPS, SSRDSSGFQSF, the assay gave 3.95, 5.47, ND (mean 4.71; controls 0 of 9).
For EGDSLRWYYAN, GKNNRPS, SKRDSSGFQYF, the assay gave 2.70, 2.72, 3.32 (mean 2.91; controls 0 of 9).
For EGDSLRYYYAN, HKNHRPS, SSRESSGFQVF, the assay gave ND, 4.53, ND (controls 1 of 9).
For EGDSLRYYYQN, GGNNRPS, SSRDSSGFQVF, the assay gave 2.34, 2.52, 2.48 (mean 2.44; controls 1 of 9).
For EWDSLRYYDAN, GKNFRPS, SSRDSSGFQVF, the assay gave ND, 3.45, 3.46 (mean 3.45; controls 1 of 9).
For EGDSLRYYYAS, GKNNRPS, ASRDSSLFQVF, the assay gave 3.09, 3.06, 2.82 (mean 2.99; controls 6 of 9).
For EGDSLRYYYAN, PKNNRPS, GSRKSSGFQVF, the assay gave ND, ND, ND (controls 1 of 9).
For EGDSLREYYAN, GDNNRPS, SSRDSSGFSVF, the assay gave 3.31, 3.27, 2.83 (mean 3.14; controls 6 of 9).
For EGDSLRYYYHN, GKNWRPS, SSRDSSGFQVF, the assay gave 4.59, ND, 2.56 (mean 3.57; controls 2 of 9).
For EGPSLRYPYSN, GKNNRPS, SSRDSSGFQVF, the assay gave 1.04, 1.61, 0.64 (mean 1.10; controls 3 of 9).
For EGDSLRYYYAD, GKNNTPS, SSRDSAGFQVF, the assay gave 4.64, 5.84, ND (mean 5.24; controls 3 of 9).
For EGDSLRYYYAN, GKNNMPS, SKRDSSSFQVF, the assay gave 3.74, 3.55, ND (mean 3.65; controls 3 of 9).
For EGKSLRYYYAN, GKNNRPS, SSRDSSTFQVA, the assay gave 3.07, ND, ND (controls 3 of 9).
For EGDSLRYYYAN, WPNNRRS, SSRDSSGFQVF, the assay gave ND, 4.66, 3.16 (mean 3.91; controls 2 of 9).
For EGESLRYYYAN, GKNNRRS, SSYDSSGFQVF, the assay gave 3.94, 4.45, 4.08 (mean 4.16; controls 2 of 9).
For EGDWLRYFYAN, WKNNRPS, SSRDSSGFQVF, the assay gave ND, ND, ND (controls 3 of 9).
For EGDSLRYYYAN, GCNNRPS, SSRDSSGLQVF, the assay gave 3.87, ND, ND (controls 2 of 9).
For EGDSLRYYYGN, GKNNRPN, SSRDSSGFQIF, the assay gave ND, ND, ND (controls 0 of 9).
For EGDNLRYYYAN, GKNNRPS, SSYDSSGHQVF, the assay gave ND, 2.64, ND (controls 1 of 9).
For VGDSLWYYYAN, GKNNRPS, SSRPSSGFQVF, the assay gave ND, 5.04, ND (controls 2 of 9).
For EGDSLRYYYAN, VKNNRTS, SSRDFSGFQVF, the assay gave ND, ND, ND (controls 0 of 9).

The first 8 entries again:

EGDSLRYYWAN, GKNNRPS, SARDSSQFQVF: 3.11, 2.67, 2.28 (mean 2.69; controls 4 of 9).
RGDSLRYIYAN, GKNNRPS, SSRDSSGFQMF: 2.89, 4.24, 3.65 (mean 3.59; controls 1 of 9).
EGDSLRYYCAN, GKLNRPT, SSRDSSGFQVF: ND, 3.76, 4.33 (mean 4.05; controls 1 of 9).
EGDSLRYVYAN, GKNMRPS, SSRDSSFFQVF: ND, ND, 4.63 (controls 2 of 9).
EGHSLRYYYAN, GKANRPS, SWRDSSGFQVF: 3.07, ND, ND (controls 4 of 9).
EGASLRYYYAN, FKNNRPS, SSRDYSGFQVF: ND, ND, ND (controls 3 of 9).
EGDSLRYWYAN, KKNNRPS, SSRGSSGFQVF: ND, 5.44, ND (controls 0 of 9).
EGDSLRDYYAN, IKNNRPS, SSRDSSHFQVF: 4.41, ND, ND (controls 2 of 9).